This is an account of results in patent US20220106400A1 (published 2022).

This test deals with T1, human GITR on cells (human, UniProt Q9Y5U5 26-241).
T1 chain: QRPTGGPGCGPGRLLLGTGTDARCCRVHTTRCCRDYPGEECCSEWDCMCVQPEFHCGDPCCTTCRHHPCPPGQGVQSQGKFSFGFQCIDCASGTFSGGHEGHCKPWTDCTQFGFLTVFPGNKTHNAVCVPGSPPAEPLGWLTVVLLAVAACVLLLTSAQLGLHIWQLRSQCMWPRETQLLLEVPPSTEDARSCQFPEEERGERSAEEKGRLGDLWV
In words: FACS binding to anti-CD3/CD28-activated human CD4 T cells.

B1: anti-GITR-IgG2-IgG1 (antibody)
heavy: QVQLVESGGGVVQPGRSLRLSCAASGFTFSSYGMHWVRQAPGKGLEWVAVIWYEGSNKYYADSVKGRFTISRDNSKNTLYLQMNSLRAEDTAVYYCARGGSMVRGDYYYGMDVWGQGTTVTVSSASTKGPSVFPLAPCSRSTSESTAALGCLVKDYFPEPVTVSWNSGALTSGVHTFPAVLQSSGLYSLSSVVTVPSSNFGTQTYTCNVDHKPSNTKVDKTVERKCCVE[human IgG1 Fc skipped]
light: AIQLTQSPSSLSASVGDRVTITCRASQGISSALAWYQQKPGKAPKLLIYDASSLESGVPSRFSGSGSGTDFTLTISSLQPEDFATYYCQQFNSYPYTFGQGTKLEIKRTVAAPSVFIFPPSDEQLKSGTASVVCLLNNFYPREAKVQWKVDNALQSGNSQESVTEQDSKDSTYSLSSTLTLSKADYEKHKVYACEVTHQGLSSPVTKSFNRGEC
B1 returned an EC50 of 0.203 nM.

B2: anti-GITR-IgG1 (antibody)
heavy: QVQLVESGGGVVQPGRSLRLSCAASGFTFSSYGMHWVRQAPGKGLEWVAVIWYEGSNKYYADSVKGRFTISRDNSKNTLYLQMNSLRAEDTAVYYCARGGSMVRGDYYYGMDVWGQGTTVTVSSASTKGPSVFPLAPSSKSTSGGTAALGCLVKDYFPEPVTVSWNSGALTSGVHTFPAVLQSSGLYSLSSVVTVPSSSLGTQTYICNVNHKPSNTKVDKKV[human IgG1 Fc skipped]
light: AIQLTQSPSSLSASVGDRVTITCRASQGISSALAWYQQKPGKAPKLLIYDASSLESGVPSRFSGSGSGTDFTLTISSLQPEDFATYYCQQFNSYPYTFGQGTKLEIKRTVAAPSVFIFPPSDEQLKSGTASVVCLLNNFYPREAKVQWKVDNALQSGNSQESVTEQDSKDSTYSLSSTLTLSKADYEKHKVYACEVTHQGLSSPVTKSFNRGEC
As to B2, it took 0.257 nM to reach a half-maximal effect (EC50).

B3: anti-GITR-IgG1.1 (antibody)
heavy: QVQLVESGGGVVQPGRSLRLSCAASGFTFSSYGMHWVRQAPGKGLEWVAVIWYEGSNKYYADSVKGRFTISRDNSKNTLYLQMNSLRAEDTAVYYCARGGSMVRGDYYYGMDVWGQGTTVTVSSASTKGPSVFPLAPSSKSTSGGTAALGCLVKDYFPEPVTVSWNSGALTSGVHTFPAVLQSSGLYSLSSVVTVPSSSLGTQTYICNVNHKPSNTKVDKKVEPKSCDKTHTCPPCPAPEAEGAPSVFLFPPKPKDTLMISRTPEVTCVVVDVSHEDPEVKFNWYVDGVEVHNAKTKPREEQYNSTYRVVSVLTVLHQDWLNGKEYKCKVSNKALPSSIEKTISKAKGQPREPQVYTLPPSREEMTKNQVSLTCLVKGFYPSDIAVEWESNGQPENNYKTTPPVLDSDGSFFLYSKLTVDKSRWQQGNVFSCSVMHEALHNHYTQKSLSLSPG
light: AIQLTQSPSSLSASVGDRVTITCRASQGISSALAWYQQKPGKAPKLLIYDASSLESGVPSRFSGSGSGTDFTLTISSLQPEDFATYYCQQFNSYPYTFGQGTKLEIKRTVAAPSVFIFPPSDEQLKSGTASVVCLLNNFYPREAKVQWKVDNALQSGNSQESVTEQDSKDSTYSLSSTLTLSKADYEKHKVYACEVTHQGLSSPVTKSFNRGEC
In turn, B3 came in with an EC50 of 0.286 nM.
